Literature values as cited in patent publication EP2322149A1, “Methods and compositions for the treatment of ischemia” (Universidad del Pais Vasco, priority 2009, dated 2011).
Where a name gives a salt, the structure may show the parent alone.

Target: T1, P2X4 (Homo sapiens, UniProt Q99571)
T1 sequence (Q99571 1-388): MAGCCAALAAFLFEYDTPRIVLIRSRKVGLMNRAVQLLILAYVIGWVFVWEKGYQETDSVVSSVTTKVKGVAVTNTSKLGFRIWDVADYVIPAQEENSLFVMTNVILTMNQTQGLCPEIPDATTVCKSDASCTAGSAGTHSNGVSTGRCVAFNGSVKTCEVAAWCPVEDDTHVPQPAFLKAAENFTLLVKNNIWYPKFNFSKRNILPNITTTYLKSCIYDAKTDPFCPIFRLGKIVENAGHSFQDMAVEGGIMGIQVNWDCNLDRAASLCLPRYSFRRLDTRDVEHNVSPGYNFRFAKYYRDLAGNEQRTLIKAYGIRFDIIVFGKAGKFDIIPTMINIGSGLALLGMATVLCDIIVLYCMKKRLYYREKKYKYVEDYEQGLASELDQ
Conditions: cited from earlier work

Nc1ncnc2c1ncn2[C@@H]1O[C@H](COP(=O)(O)OP(=O)(O)OP(=O)(O)O)[C@H]2OC3(O[C@H]21)C([N+](=O)[O-])=CC(=[N+]([O-])[O-])C=C3[N+](=O)[O-] (stereo partly shown) [TNP-ATP, monolithium salt of 2',3'-O-2,4,6-trinitrophenyl-adenosine 5'-triphosphate]
IC50: 15 µM
